# scFv variants of Ab-14 (heavy chain) against a SARS-CoV-2 spike peptide

Source: Li et al. 2023 (doi:10.1038/s41467-023-39022-2), MIT Lincoln Laboratory and A-Alpha Bio; data file from the FLAb repository.

Binding partner: SARS-CoV-2 spike HR2 peptide, sequence PDVDLGDISGINAS.

Each scFv is VH, three GGGGS repeats, VL, as in the parent Ab-14, and differs from it in the CDRs of the heavy chain only.
VH: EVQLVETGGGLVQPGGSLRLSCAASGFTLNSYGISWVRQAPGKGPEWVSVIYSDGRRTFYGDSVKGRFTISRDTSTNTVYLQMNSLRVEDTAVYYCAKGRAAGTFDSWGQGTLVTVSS
VL: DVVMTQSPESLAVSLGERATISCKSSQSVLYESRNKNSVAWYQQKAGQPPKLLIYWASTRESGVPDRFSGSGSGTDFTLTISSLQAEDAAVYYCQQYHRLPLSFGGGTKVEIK

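These sequences belong to a second round, designed from the earlier measurements on random variants of the parent. Their group label is 14H_En_Gen (En: ensemble of fine-tuned language models; Gen: genetic algorithm). The assay is AlphaSeq: two haploid yeast populations carry antibody and antigen on their surface. Mating (16 h, 30 °C) was followed by selection of diploids and sequencing of their barcodes. A regression on co-assayed BCL2-family reference pairs converts the normalised counts of each replicate to an apparent Kd. There are six technical replicates.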

Variants are written as CDR1, CDR2 and CDR3 of the heavy chain (limits as in the source). Parent: GFTLNSYGIS, VIYSDGRRTFYGDSVK, GRAAGTFDS. The read-out is the apparent dissociation constant on a log10 scale (nM): the lower, the stronger. The mean shown is taken over the replicates in which the pair was detected. A pair that was not seen in that replicate is written "nd"; this usually means weak binding, but a binder can also be missed. Empty control strains, which show no peptide, gave a signal in 1% of pairings with all heavy chain designs; the median was 2.08 and 95% of these signals were weaker than 0.84. No background was subtracted. Also given: how often the same scFv was detected with the empty control strains, with their mean in brackets.

CDR-H1,CDR-H2,CDR-H3,log10 Kd (nM) by replicate,"mean, log10 nM",empty controls
GFDLNEYGIS,VIYADGVRTAYADSVK,GNQAGTFDV,-0.54 / -0.23 / -0.88 / -0.98 / -0.70 / -0.35,-0.61,0 of 18
GFDLNEYGIS,VIYADGQRTAYADSVK,GENAGTFVV,nd / nd / nd / nd / nd / nd,nd,0 of 18
GFDLDEYGIS,VIYADGQRTAYSDSVK,GENAGTFDL,-0.19 / -0.25 / -0.28 / 0.23 / -0.50 / 0.42,-0.10,0 of 18
GFDLNEYGIS,VIYADGMRTAYAESVK,GENAGTFDV,-0.34 / -0.40 / -0.49 / -0.68 / -0.71 / -0.31,-0.49,0 of 18
GFDLNEYGIS,VIYADGSRTAYSDSVK,GEVAGTFDV,-0.30 / -0.18 / -0.39 / -0.27 / -0.21 / -0.22,-0.26,0 of 18
GFDLNEYGIS,VIYADGVRTAYANSVK,GQVAGTFDV,-0.27 / -0.58 / -0.50 / -0.57 / -0.53 / -0.65,-0.52,0 of 18
GFDLNEYGIS,VIYADGVRTFYADSVK,GEVAGTFDT,-0.36 / -0.68 / 0.06 / -0.61 / -1.05 / -0.74,-0.56,0 of 18
GFDLNEYGIS,VIYADGMRTVYADSVK,GKNAGTFDV,0.46 / -0.08 / -0.30 / -0.46 / -0.13 / -0.21,-0.12,0 of 18
GFDLNEYGIS,VIYADGMRKAYSDSVK,GENAGTFDV,-0.38 / -0.56 / -0.66 / -0.69 / -0.72 / -0.55,-0.59,1 of 18 (1.45)
GFDLNEYGIS,VIYADGMRKAYADSVK,GNVAGTFDM,-0.47 / -0.90 / -0.61 / -0.49 / -0.51 / -0.31,-0.55,1 of 18 (0.90)
GFDLDEYGIS,VIYADGRRTAYADDVK,GGNAGTFDV,0.97 / 1.06 / 0.07 / 1.41 / 0.82 / nd,0.87,0 of 18
GFDLDEYGIS,VIYADGMRTAYSDDVK,GNVAGTFDI,-0.28 / -0.26 / -0.59 / -0.61 / -0.74 / -0.33,-0.47,1 of 18 (1.79)
GFDLNEYGIS,VIYADGVRTFYADSVK,GEVAGTFDL,-0.63 / -0.67 / -1.33 / -0.95 / -0.54 / -0.62,-0.79,0 of 18
GFDLNEYGIS,VIYADGMRTAYADSVK,GNVAGTFVQ,-0.72 / -0.50 / -0.82 / -0.84 / -0.51 / -0.24,-0.60,1 of 18 (1.93)
GFDLNEYGIS,VIYADGQRTVYADSVK,GENAGTFDI,0.08 / -0.48 / 0.16 / 0.25 / -0.57 / -0.22,-0.13,0 of 18
GFDLNEYGIS,VIYADGQRTAYADNVK,GQVAGTFDI,0.01 / 0.01 / -0.26 / -0.13 / -0.04 / -0.09,-0.08,1 of 18 (3.86)
GFDLDEYGIS,VIYADGMRTFYADSVK,GETAGTFDQ,-0.22 / 0.00 / -0.28 / -0.33 / -0.02 / -0.34,-0.20,0 of 18
GFNLDEYGIS,VIYADGMRTAYADSVK,GNTAGTFDI,-0.32 / 0.53 / 0.00 / -0.27 / 0.40 / -0.19,0.03,0 of 18
GFDLNEYGIS,VIYADGMRTAYSDSVK,GETAGTFDV,-0.57 / -0.40 / -0.80 / -1.05 / -0.65 / -0.32,-0.63,0 of 18
GFDLNEYGIS,VIYADGVRTAYADSVK,GQNAGTFDL,0.33 / -0.39 / -0.80 / -0.46 / -0.62 / -0.87,-0.47,0 of 18
GFDLNEYGIS,VIYADGMRTAYADSVK,GETAGTFDA,0.67 / nd / 0.40 / 0.03 / 0.32 / -0.49,0.19,0 of 18
GFDLDEYGIS,VIYADGRRTAYSDSVK,GNVAGTFDI,-0.71 / -0.71 / -0.60 / -1.05 / -0.45 / -0.28,-0.63,0 of 18
GFDLNEYGIS,VIYADGRRTFYADDVK,GENAGTFDV,-0.44 / -0.30 / -0.52 / -0.94 / -0.55 / -0.61,-0.56,0 of 18
GFDLEEYGIS,VIYADGKRTAYADSVK,GNTAGTFDV,0.38 / 0.21 / -0.20 / -0.31 / 0.09 / 0.15,0.05,0 of 18
GFDLNEYGIS,VIYADGVRTAYADSVK,GNEAGTFDI,-0.04 / 0.13 / -0.20 / -0.52 / -0.19 / 0.03,-0.13,2 of 18 (2.09)
GFDLNEYGIS,VIYADGMRTYYADSVK,GNTAGTFDV,-0.05 / -0.53 / 0.02 / -0.46 / 0.00 / -0.24,-0.21,0 of 18
GFDLNEYGIS,VIYADGMRTAYSDDVK,GSNAGTFDV,-0.65 / -0.73 / -0.49 / -0.83 / -0.77 / -0.23,-0.62,0 of 18
GFDLNEYGIS,VIYADGKRTAYADDVK,GENAGTFDI,-0.10 / -0.11 / -0.40 / 0.13 / -0.01 / 0.08,-0.07,1 of 18 (2.02)
GFDLNEYGIS,VIYADGVRTAYIDSVK,GENAGTFDL,0.02 / -0.28 / -0.26 / -0.49 / -0.30 / 0.09,-0.20,0 of 18
GFDLNEYGIS,VIYADGVRTYYADDVK,GNVAGTFDI,-0.15 / -0.30 / -0.23 / -0.29 / -0.11 / -0.23,-0.22,0 of 18
GFDLDEYGIS,VIYADGMRKAYADSVK,GNTAGTFDV,-0.56 / -0.50 / -0.67 / -0.47 / -0.53 / -0.49,-0.54,0 of 18
GFDLDEYGIS,VIYADGRRTAYADSVK,GKNAGTFDV,-0.71 / -0.76 / -1.11 / -0.75 / -1.14 / -0.73,-0.87,0 of 18
GFDLNEYGIS,VIYADGMRKAYSDSVK,GEVAGTFDV,-0.59 / -0.34 / -0.64 / -0.68 / -0.62 / -0.48,-0.56,0 of 18
GFDLNEYGIS,VIYADGKRTAYADSVK,GNEAGTFDV,0.36 / -0.48 / -0.58 / -0.66 / -0.45 / -0.57,-0.40,0 of 18
GFDLNEYGIS,VIYADGMRTAYADNVK,GQTAGTFDI,-0.32 / -0.36 / -0.83 / -0.96 / -0.78 / 0.12,-0.52,0 of 18
GFDLNEYGIS,VIYADGMRTAYADNVK,GQVAGTFDL,-0.74 / -0.58 / -0.71 / -0.75 / -0.77 / -0.40,-0.66,0 of 18
GFDLNEYGIS,VIYADGMRKAYADSVK,GNVAGTFDQ,-0.58 / -0.67 / -0.74 / -1.00 / -0.79 / -0.88,-0.78,0 of 18
GFDLDEYGIS,VIYADGMRTAYVDSVK,GQNAGTFDV,0.03 / -0.13 / -0.15 / -0.49 / -0.33 / -0.52,-0.26,0 of 18
GFDLDEYGIS,VIYADGMRTVYADSVK,GNQAGTFDV,-0.12 / -0.36 / -0.66 / -0.60 / -0.20 / -0.58,-0.42,0 of 18
GFDLNEYGIS,VIYADGMRTSYIDSVK,GENAGTFDV,0.06 / -0.44 / -0.59 / -0.15 / -0.55 / -0.30,-0.33,0 of 18

Extract of 5 entries:

CDR-H1,CDR-H2,CDR-H3,log10 Kd (nM) by replicate,"mean, log10 nM",empty controls
GFDLDEYGIS,VIYADGMRTVYADSVK,GNQAGTFDV,-0.12 / -0.36 / -0.66 / -0.60 / -0.20 / -0.58,-0.42,0 of 18
GFDLNEYGIS,VIYADGMRKAYADSVK,GNVAGTFDM,-0.47 / -0.90 / -0.61 / -0.49 / -0.51 / -0.31,-0.55,1 of 18 (0.90)
GFDLNEYGIS,VIYADGMRTAYADSVK,GNVAGTFVQ,-0.72 / -0.50 / -0.82 / -0.84 / -0.51 / -0.24,-0.60,1 of 18 (1.93)
GFDLNEYGIS,VIYADGVRTAYIDSVK,GENAGTFDL,0.02 / -0.28 / -0.26 / -0.49 / -0.30 / 0.09,-0.20,0 of 18
GFDLNEYGIS,VIYADGVRTAYANSVK,GQVAGTFDV,-0.27 / -0.58 / -0.50 / -0.57 / -0.53 / -0.65,-0.52,0 of 18

The range of this assay differs from that of the first round, and the authors advise against merging the two. In the paper, a design with two or fewer of six values counts as a poor binder.